Test results as given in patent publication US3969530A, “4-Hydroxy-3,5-di-alkyl-phenyl-propionic acid composition suitable as lipid lowering and anti-diabetic agents” (Hoechst Aktiengesellschaft, priority 1972, dated 1976).

Assay: in vivo
Details: mouse, po, male mice

SMILES: CC(C)(C)c1cc(CCC(=O)OCC(COC(=O)CCc2cc(C(C)(C)C)c(O)c(C(C)(C)C)c2)(COC(=O)CCc2cc(C(C)(C)C)c(O)c(C(C)(C)C)c2)COC(=O)CCc2cc(C(C)(C)C)c(O)c(C(C)(C)C)c2)cc(C(C)(C)C)c1O [Example 7, Tetra-(4-hydroxy-3,5-di-t.-butylphenyl-propionic acid)-pentaerythritol ester]
- LD50: > 8000 mg/kg
